Literature values in US20180348222A1, “BUFADIENOLIDE FOR TREATMENT OF NON-SMALL CELL LUNG CANCER” (priority 2017, published 2018).
Where two headings read alike, the source gives them in different places.

Tested on: HCC827, A549 and H1975 cells
Settings: cited from earlier work

With `COc1cc2ncnc(Nc3ccc(F)c(Cl)c3)c2cc1OCCCN1CCOCC1` [Gefitinib, gefitinib] as the compound, how does the Gefitinib sensitive (A549) read?
Its Gefitinib sensitive is “Sensitive”.

What about the Gefitinib sensitive (H1975) of the same compound?
Its Gefitinib sensitive is “Resistant”.

What about the Gefitinib sensitive (HCC827) of the same compound?
Its Gefitinib sensitive is “Sensitive”.
